Measurements reported in ChEMBL document CHEMBL1137024, “Acyl-CoA: cholesterol acyltransferase inhibitory activities of fatty acid amides isolated from Mylabris phalerate Pallas” (Bioorg Med Chem Lett, 2004).

target: T1, Sterol O-acyltransferase 1 (Rattus norvegicus, UniProt O70536); assay: Inhibitory activity against rat liver microsomal Acyl coenzyme A:cholesterol acyltransferase
T1 sequence (O70536 whole entry): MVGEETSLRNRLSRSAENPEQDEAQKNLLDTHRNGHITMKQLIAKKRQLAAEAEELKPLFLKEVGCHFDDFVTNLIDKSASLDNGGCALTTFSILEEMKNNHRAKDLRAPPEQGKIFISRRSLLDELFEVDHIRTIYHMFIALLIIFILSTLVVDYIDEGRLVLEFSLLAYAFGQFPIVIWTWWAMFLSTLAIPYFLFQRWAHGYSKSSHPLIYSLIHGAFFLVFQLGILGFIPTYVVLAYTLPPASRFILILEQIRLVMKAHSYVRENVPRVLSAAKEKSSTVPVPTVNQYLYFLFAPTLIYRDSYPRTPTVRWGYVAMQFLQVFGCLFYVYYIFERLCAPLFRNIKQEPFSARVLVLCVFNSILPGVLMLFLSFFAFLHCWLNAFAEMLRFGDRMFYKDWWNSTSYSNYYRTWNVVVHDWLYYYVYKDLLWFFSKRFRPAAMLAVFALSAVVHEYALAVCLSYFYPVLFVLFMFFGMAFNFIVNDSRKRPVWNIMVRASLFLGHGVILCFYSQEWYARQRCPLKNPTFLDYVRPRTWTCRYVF

Row | Structure (SMILES) | IC50 [µM]
1 | CCCCC/C=C\C/C=C\CCCCCCCC(N)=O | 150
2 | CCCCCCCC/C=C\CCCCCCCC(N)=O [OLEAMIDE] | 170
3 | CCCCCCCCC=CCCCCCCCC(=O)Nc1ccccc1 [OLEIC ACID ANILIDE] | 0.02
